Laboratory results taken from publication PMC11219945, “Assessing genotoxic effects of chemotherapy agents by a robust in vitro assay based on mass spectrometric quantification of γ-H2AX in HepG2 cells” (Frontiers in Pharmacology, 2024).

Experiments:
[1] = combination of in vitro mouse lymphoma, chromosomal aberration, and micronucleus tests; cited from earlier work
γ-H2AX in HepG2 cells = conditions: human, 24 h
Procedure: Human hepatoblastoma cells (HepG2) were cultivated in DMEM medium under standard conditions (37°C in a 5% CO2 atmosphere). The culturing medium was added with 10% FBS, 100 U/mL penicillin and 100 μg/mL streptomycin.
In accordance to our previous study, cells were exposed to the chemotherapeutic agent by adding a proper volume of chemotherapeutic agent stock solution to the fresh medium without serum. Controls were treated with DMSO (0.1%) in medium. Independent biological experiments with three technical replicates were conducted.
The cells were then treated with different chemotherapy agents in serum-free medium. For a dose-effect relationship experiment, cells were exposed to each agent at either of three concentrations with a 10-fold increase for 24 h. For the time-effect relationship experiment of nine tested chemotherapy agents, cells were exposed to selected chemotherapy agents at 0.5, 1, 2, 4, 8, 12, and 24 h, with the concentration of 100 μM. Independent biological experiments with three technical replicates were performed.
The quantification of γ-H2AX was carried out according to the previous report ([Qu et al., 2021]). […] After nuclear isolation, histone extraction, trypsin digestion in the solution, and desalting, the peptide sample from the carboxy terminus of H2AX was analyzed. […]

SMILES: CCc1c2c(nc3ccc(OC(=O)N4CCC(N5CCCCC5)CC4)cc13)-c1cc3c(c(=O)n1C2)COC(=O)[C@]3(O)CC [Irinotecan]
- In vitro assays (genotoxicity) [1]: +
- maximum γ-H2AX value within the selected concentration range (γ-H2AX in HepG2 cells): 17.5
